Measured values from PubChem BioAssay (NCI).
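Step 1: Grow cells in 96-well plates. Step 2: Expose to compound for 48 hours at 5 concentrations. Step 3: Interpolate endpoints linearly; if unreached, use highest concentration. At the GI50, growth is halved. At the TGI there is no net growth.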

How the values were obtained:
Assay in all cases: inhibition of tumour cell growth, NCI panel, 48 h
NCI/ADR-RES ovarian = tested on: NCI/ADR-RES ovarian
NCI-H522 lung = tested on: NCI-H522 lung
CCRF-CEM leukemia = tested on: CCRF-CEM leukemia
OVCAR-3 ovarian = tested on: OVCAR-3 ovarian
K-562 leukemia = tested on: K-562 leukemia
UO-31 renal = tested on: UO-31 renal
PC-3 prostate = tested on: PC-3 prostate
NCI-H226 lung = tested on: NCI-H226 lung
LOX IMVI melanoma = tested on: LOX IMVI melanoma
IGROV1 ovarian = tested on: IGROV1 ovarian
HS 578T breast = tested on: HS 578T breast
A498 renal = tested on: A498 renal
HT29 colon = tested on: HT29 colon
HOP-92 NSCLC = tested on: HOP-92 NSCLC
M14 melanoma = tested on: M14 melanoma
HCT-15 colon = tested on: HCT-15 colon
SNB-75 CNS = tested on: SNB-75 CNS
ACHN renal = tested on: ACHN renal
A549 NSCLC = tested on: A549 NSCLC
OVCAR-4 ovarian = tested on: OVCAR-4 ovarian
MCF7 breast = tested on: MCF7 breast
HOP-62 NSCLC = tested on: HOP-62 NSCLC
OVCAR-8 ovarian = tested on: OVCAR-8 ovarian
MALME-3M melanoma = tested on: MALME-3M melanoma
DU-145 prostate = tested on: DU-145 prostate
SN12C renal = tested on: SN12C renal
COLO 205 colon = tested on: COLO 205 colon
CAKI-1 renal = tested on: CAKI-1 renal
BT-549 breast = tested on: BT-549 breast
MOLT-4 leukemia = tested on: MOLT-4 leukemia
U251 CNS = tested on: U251 CNS
NCI-H322M lung = tested on: NCI-H322M lung
HCT-116 colon = tested on: HCT-116 colon
HL-60(TB) leukemia = tested on: HL-60(TB) leukemia
SK-MEL-5 melanoma = tested on: SK-MEL-5 melanoma
OVCAR-5 ovarian = tested on: OVCAR-5 ovarian
RXF 393 renal = tested on: RXF 393 renal
SK-MEL-28 melanoma = tested on: SK-MEL-28 melanoma
HCC-2998 colon = tested on: HCC-2998 colon
NCI-H23 lung = tested on: NCI-H23 lung
UACC-62 melanoma = tested on: UACC-62 melanoma
SR leukemia = tested on: SR leukemia
SK-MEL-2 melanoma = tested on: SK-MEL-2 melanoma
SK-OV-3 ovarian = tested on: SK-OV-3 ovarian
MDA-MB-435 = tested on: MDA-MB-435
RPMI-8226 leukemia = tested on: RPMI-8226 leukemia
NCI-H460 lung = tested on: NCI-H460 lung
SF-268 CNS = tested on: SF-268 CNS
786-0 renal = tested on: 786-0 renal
SNB-19 CNS = tested on: SNB-19 CNS
KM12 colon = tested on: KM12 colon
TK-10 renal = tested on: TK-10 renal
MDA-MB-231 breast = tested on: MDA-MB-231 breast
SW-620 colon = tested on: SW-620 colon
EKVX NSCLC = tested on: EKVX NSCLC
SF-539 CNS = tested on: SF-539 CNS
UACC-257 melanoma = tested on: UACC-257 melanoma
T-47D breast = tested on: T-47D breast

CC1CC[P+](c2ccccc2)(c2ccccc2)c2c1ccc1ccccc21.F[P-](F)(F)(F)(F)F (configuration not stated)
TGI (NCI/ADR-RES ovarian): > 100 µM

Cc1c([N+](=O)[O-])c(C)c([N+](=O)[O-])c(Nc2c([N+](=O)[O-])c(C)c([N+](=O)[O-])c(C)c2[N+](=O)[O-])c1[N+](=O)[O-]
GI50 (NCI-H522 lung): 1.12 µM | TGI (NCI-H522 lung): 4.72 µM | GI50 (CCRF-CEM leukemia): 0.463 µM | TGI (CCRF-CEM leukemia): 3.67 µM | GI50 (OVCAR-3 ovarian): 1.82 µM | TGI (OVCAR-3 ovarian): 9.2 µM | GI50 (K-562 leukemia): 1.4 µM | TGI (K-562 leukemia): 29.9 µM | GI50 (UO-31 renal): 2.13 µM | TGI (UO-31 renal): 9.54 µM | GI50 (PC-3 prostate): 0.578 µM | TGI (PC-3 prostate): 5.76 µM | GI50 (NCI-H226 lung): 1.87 µM | TGI (NCI-H226 lung): 6.33 µM | GI50 (LOX IMVI melanoma): 1.45 µM | TGI (LOX IMVI melanoma): 5.36 µM | GI50 (IGROV1 ovarian): 3.1 µM | TGI (IGROV1 ovarian): 16.9 µM | GI50 (HS 578T breast): 0.584 µM | TGI (HS 578T breast): 7.09 µM | GI50 (A498 renal): 0.219 µM | TGI (A498 renal): 1.34 µM | GI50 (HT29 colon): 1.19 µM | TGI (HT29 colon): 10.8 µM | GI50 (HOP-92 NSCLC): 0.218 µM | TGI (HOP-92 NSCLC): 0.747 µM | GI50 (M14 melanoma): 1.78 µM | TGI (M14 melanoma): 6.28 µM | GI50 (HCT-15 colon): 1.28 µM | TGI (HCT-15 colon): 4.02 µM | GI50 (SNB-75 CNS): 1.34 µM | TGI (SNB-75 CNS): 7.72 µM | GI50 (ACHN renal): 2.16 µM | TGI (ACHN renal): 67.6 µM | GI50 (NCI/ADR-RES ovarian): 1.81 µM | TGI (NCI/ADR-RES ovarian): 9.16 µM | GI50 (A549 NSCLC): 2.05 µM | TGI (A549 NSCLC): 9.83 µM | GI50 (OVCAR-4 ovarian): 1.11 µM | TGI (OVCAR-4 ovarian): 12.5 µM | GI50 (MCF7 breast): 0.872 µM | TGI (MCF7 breast): 10.2 µM | GI50 (HOP-62 NSCLC): 1.07 µM | TGI (HOP-62 NSCLC): 2.78 µM | GI50 (OVCAR-8 ovarian): 2.62 µM | TGI (OVCAR-8 ovarian): 9.44 µM | GI50 (MALME-3M melanoma): 1.27 µM | TGI (MALME-3M melanoma): 11.9 µM | GI50 (DU-145 prostate): 2.97 µM | TGI (DU-145 prostate): 17.9 µM | GI50 (SN12C renal): 2.13 µM | TGI (SN12C renal): 13.1 µM | GI50 (COLO 205 colon): 0.999 µM | TGI (COLO 205 colon): 2.15 µM | GI50 (CAKI-1 renal): 1.76 µM | TGI (CAKI-1 renal): 10.1 µM | GI50 (BT-549 breast): 1.28 µM | TGI (BT-549 breast): 4.15 µM | GI50 (MOLT-4 leukemia): 1.11 µM | TGI (MOLT-4 leukemia): 3.69 µM | GI50 (U251 CNS): 0.44 µM | TGI (U251 CNS): 3.62 µM | GI50 (NCI-H322M lung): 1.19 µM | TGI (NCI-H322M lung): 9.14 µM | GI50 (HCT-116 colon): 0.452 µM | TGI (HCT-116 colon): 2.04 µM | GI50 (HL-60(TB) leukemia): 1.81 µM | TGI (HL-60(TB) leukemia): 4.82 µM | GI50 (SK-MEL-5 melanoma): 1.55 µM | TGI (SK-MEL-5 melanoma): 3.35 µM | GI50 (OVCAR-5 ovarian): 2.06 µM | TGI (OVCAR-5 ovarian): 15.1 µM | GI50 (RXF 393 renal): 0.858 µM | TGI (RXF 393 renal): 5.16 µM | GI50 (SK-MEL-28 melanoma): 1.94 µM | TGI (SK-MEL-28 melanoma): 7.38 µM | GI50 (HCC-2998 colon): 0.55 µM | TGI (HCC-2998 colon): 4.99 µM | GI50 (NCI-H23 lung): 1.36 µM | TGI (NCI-H23 lung): 3.39 µM | GI50 (UACC-62 melanoma): 1.3 µM | TGI (UACC-62 melanoma): 3.84 µM | GI50 (SR leukemia): 0.506 µM | TGI (SR leukemia): 3.81 µM | GI50 (SK-MEL-2 melanoma): 1.45 µM | TGI (SK-MEL-2 melanoma): 3.61 µM | GI50 (SK-OV-3 ovarian): 2.43 µM | TGI (SK-OV-3 ovarian): 7.59 µM | GI50 (MDA-MB-435): 2.18 µM | TGI (MDA-MB-435): 6.98 µM | GI50 (RPMI-8226 leukemia): 0.649 µM | TGI (RPMI-8226 leukemia): 3.34 µM | GI50 (NCI-H460 lung): 2.01 µM | TGI (NCI-H460 lung): 9.73 µM | GI50 (SF-268 CNS): 1.98 µM | TGI (SF-268 CNS): 16.4 µM | GI50 (786-0 renal): 1.64 µM | TGI (786-0 renal): 6.85 µM | GI50 (SNB-19 CNS): 2.34 µM | TGI (SNB-19 CNS): 38.4 µM | GI50 (KM12 colon): 2.46 µM | TGI (KM12 colon): 7.94 µM | GI50 (TK-10 renal): 3.76 µM | TGI (TK-10 renal): 12.9 µM | GI50 (MDA-MB-231 breast): 0.455 µM | TGI (MDA-MB-231 breast): 2.47 µM | GI50 (SW-620 colon): 1.77 µM | TGI (SW-620 colon): 10.9 µM | GI50 (EKVX NSCLC): 1.76 µM | TGI (EKVX NSCLC): > 100 µM | GI50 (SF-539 CNS): 1.94 µM | TGI (SF-539 CNS): 12.1 µM | GI50 (UACC-257 melanoma): 2.06 µM | TGI (UACC-257 melanoma): 4.93 µM | GI50 (T-47D breast): 1.71 µM | TGI (T-47D breast): 6.96 µM
